Our source for the Ki values is ChEMBL document CHEMBL1131143, “Predictive models for GABAA/benzodiazepine receptor subtypes: studies of quantitative structure-activity relationships for imidazobenzodiazepines at five recombinant GABAA/benzodiazepine receptor subtypes [alphaxbeta3gamma2 (x = 1-3, 5, and 6)] via comparative molecular field analysis” (J Med Chem, 1998).

The chains behind the UniProt entries cited, without tags or fusion partners.
UniProt Q16445, whole entry: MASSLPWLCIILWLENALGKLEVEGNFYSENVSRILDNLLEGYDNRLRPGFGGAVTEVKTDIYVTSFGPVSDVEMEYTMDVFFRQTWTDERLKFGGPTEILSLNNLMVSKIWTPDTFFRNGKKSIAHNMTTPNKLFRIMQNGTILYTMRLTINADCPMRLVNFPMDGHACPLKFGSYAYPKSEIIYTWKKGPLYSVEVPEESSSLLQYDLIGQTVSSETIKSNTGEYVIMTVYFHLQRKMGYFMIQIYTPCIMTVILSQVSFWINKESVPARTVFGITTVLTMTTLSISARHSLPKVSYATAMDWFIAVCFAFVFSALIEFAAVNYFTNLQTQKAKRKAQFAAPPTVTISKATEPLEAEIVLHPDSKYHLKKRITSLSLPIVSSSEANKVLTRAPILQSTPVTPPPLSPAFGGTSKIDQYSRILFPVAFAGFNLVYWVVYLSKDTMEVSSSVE

Each structure is given as a SMILES string.

What all share (assay type): protein-complex assay
Test [1] addresses GABA-A receptor; alpha-6/beta-3/gamma-2 (Homo sapiens, UniProt P18507+P28472+Q16445). In words: Binding affinity against Gamma-aminobutyric acid A receptor alpha-6-beta-3-gamma-2. In outline: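 Cells scraped into PBS, spun at 3000g, resuspended in 10 mM KH₂PO₄/100 mM KCl pH 7.4. Nonspecific binding with 10⁻⁵ M diazepam; 1 h to equilibrium at 4 °C; filtration, ice-cold buffer wash, scintillation counting.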

Test [2] addresses T1, GABA-A receptor; alpha-2/beta-3/gamma-2 (Homo sapiens, UniProt P18507+P28472+P47869).
T1 sequence (P18507 whole entry): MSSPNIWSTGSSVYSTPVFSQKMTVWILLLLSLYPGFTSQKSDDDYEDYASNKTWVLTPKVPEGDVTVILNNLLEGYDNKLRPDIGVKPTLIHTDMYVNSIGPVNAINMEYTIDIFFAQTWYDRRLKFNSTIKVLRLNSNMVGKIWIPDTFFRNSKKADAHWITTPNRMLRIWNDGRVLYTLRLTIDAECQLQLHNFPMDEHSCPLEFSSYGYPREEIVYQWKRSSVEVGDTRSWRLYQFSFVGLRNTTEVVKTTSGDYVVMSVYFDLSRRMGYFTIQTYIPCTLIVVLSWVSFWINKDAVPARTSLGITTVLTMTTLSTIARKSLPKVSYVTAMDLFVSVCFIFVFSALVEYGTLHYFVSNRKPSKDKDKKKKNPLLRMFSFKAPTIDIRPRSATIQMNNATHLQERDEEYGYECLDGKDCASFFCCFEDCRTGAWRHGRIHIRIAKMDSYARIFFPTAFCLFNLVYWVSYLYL
T1 sequence (P28472 whole entry): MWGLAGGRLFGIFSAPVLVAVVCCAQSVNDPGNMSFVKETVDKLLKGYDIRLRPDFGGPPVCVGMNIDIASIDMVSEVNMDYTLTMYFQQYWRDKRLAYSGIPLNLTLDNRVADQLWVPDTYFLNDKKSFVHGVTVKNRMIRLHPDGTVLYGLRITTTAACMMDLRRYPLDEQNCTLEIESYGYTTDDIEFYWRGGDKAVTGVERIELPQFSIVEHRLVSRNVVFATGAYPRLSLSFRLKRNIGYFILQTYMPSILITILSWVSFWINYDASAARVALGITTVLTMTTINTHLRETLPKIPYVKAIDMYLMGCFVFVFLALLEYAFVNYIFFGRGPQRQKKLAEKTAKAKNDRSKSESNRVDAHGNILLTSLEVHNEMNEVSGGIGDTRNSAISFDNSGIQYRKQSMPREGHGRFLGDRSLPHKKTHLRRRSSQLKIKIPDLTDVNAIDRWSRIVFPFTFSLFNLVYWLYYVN
T1 sequence (P47869 whole entry): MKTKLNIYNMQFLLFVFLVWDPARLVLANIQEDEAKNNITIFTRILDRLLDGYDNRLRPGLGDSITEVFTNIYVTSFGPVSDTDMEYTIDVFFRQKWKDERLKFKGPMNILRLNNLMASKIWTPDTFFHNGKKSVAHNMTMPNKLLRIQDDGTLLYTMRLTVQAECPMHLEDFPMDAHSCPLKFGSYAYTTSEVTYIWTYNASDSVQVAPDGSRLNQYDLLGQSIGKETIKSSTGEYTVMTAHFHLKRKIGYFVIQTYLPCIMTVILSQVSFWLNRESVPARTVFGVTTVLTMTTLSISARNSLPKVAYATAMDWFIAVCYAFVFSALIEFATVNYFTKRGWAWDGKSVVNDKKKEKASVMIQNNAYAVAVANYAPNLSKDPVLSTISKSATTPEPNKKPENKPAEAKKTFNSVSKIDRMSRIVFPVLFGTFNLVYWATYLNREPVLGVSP
In words: Binding affinity tested against alpha-2-beta-3-gamma-2 GABAA/BzR receptor subtype.

The target of test [3] is T2, GABA-A receptor; alpha-1/beta-3/gamma-2 (Homo sapiens, UniProt P14867+P18507+P28472).
T2 sequence (P14867 whole entry): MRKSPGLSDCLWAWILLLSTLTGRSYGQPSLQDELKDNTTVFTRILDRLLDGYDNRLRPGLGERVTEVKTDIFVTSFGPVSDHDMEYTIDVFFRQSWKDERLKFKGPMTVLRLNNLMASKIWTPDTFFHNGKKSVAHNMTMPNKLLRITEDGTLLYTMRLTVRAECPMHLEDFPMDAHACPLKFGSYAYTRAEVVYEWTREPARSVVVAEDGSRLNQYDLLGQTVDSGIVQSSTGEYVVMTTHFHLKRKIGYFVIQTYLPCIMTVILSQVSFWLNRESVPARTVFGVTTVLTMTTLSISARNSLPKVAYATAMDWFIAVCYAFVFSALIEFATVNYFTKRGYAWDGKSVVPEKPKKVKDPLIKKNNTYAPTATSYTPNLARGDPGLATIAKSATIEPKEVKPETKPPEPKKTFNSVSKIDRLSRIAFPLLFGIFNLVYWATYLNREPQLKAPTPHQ
T2 sequence (P18507 whole entry): T1 sequence (P18507 whole entry)
T2 sequence (P28472 whole entry): T1 sequence (P28472 whole entry)
In words: Binding affinity against alpha-1-beta-3-gamma-2 GABAA/BzR receptor subtype.

The target of test [4] is T3, GABA-A receptor; alpha-3/beta-3/gamma-2 (Homo sapiens, UniProt P18507+P28472+P34903).
T3 sequence (P18507 whole entry): T1 sequence (P18507 whole entry)
T3 sequence (P28472 whole entry): T1 sequence (P28472 whole entry)
T3 sequence (P34903 whole entry): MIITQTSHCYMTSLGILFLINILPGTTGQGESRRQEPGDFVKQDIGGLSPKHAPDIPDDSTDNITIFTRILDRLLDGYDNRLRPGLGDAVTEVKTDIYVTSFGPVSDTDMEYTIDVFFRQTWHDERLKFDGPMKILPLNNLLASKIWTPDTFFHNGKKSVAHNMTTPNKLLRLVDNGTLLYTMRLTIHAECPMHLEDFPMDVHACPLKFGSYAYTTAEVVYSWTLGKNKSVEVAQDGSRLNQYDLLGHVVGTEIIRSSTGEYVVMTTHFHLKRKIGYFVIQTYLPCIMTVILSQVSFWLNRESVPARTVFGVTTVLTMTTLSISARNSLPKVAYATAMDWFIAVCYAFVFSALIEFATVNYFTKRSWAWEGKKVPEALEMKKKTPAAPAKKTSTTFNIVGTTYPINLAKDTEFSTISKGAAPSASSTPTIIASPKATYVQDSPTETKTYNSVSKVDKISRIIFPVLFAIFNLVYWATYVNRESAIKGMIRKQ
In words: Binding affinity against alpha-3-beta-3-gamma-2 GABAA/BzR receptor subtype.

For the compound `CCOC(=O)c1ncn2c1CN(C)C(=O)c1cc(N=[N+]=[N-])ccc1-2` [Ro-154513], the Ki – broadly, the dissociation constant of the complex between target and ligand, obtained from inhibition or displacement – in test [1] came to 3.8 nM; in test [2], 2.6 nM; in test [3] it was 3.3 nM; in test [4], 2.5 nM.
